Literature values, collected in patent publication US7906139B2, “Compositions and methods of using lamellar bodies for therapeutic purposes” (Lamellar Therapeutics Limited, priority 2003, dated 2011).

Biological target: T1, fibrin gels from normal human fibrinogen (Homo sapiens, UniProt P02671+P02675+P02679)
T1 sequence (P02671 20-644 isoform P02671-2 limits assumed): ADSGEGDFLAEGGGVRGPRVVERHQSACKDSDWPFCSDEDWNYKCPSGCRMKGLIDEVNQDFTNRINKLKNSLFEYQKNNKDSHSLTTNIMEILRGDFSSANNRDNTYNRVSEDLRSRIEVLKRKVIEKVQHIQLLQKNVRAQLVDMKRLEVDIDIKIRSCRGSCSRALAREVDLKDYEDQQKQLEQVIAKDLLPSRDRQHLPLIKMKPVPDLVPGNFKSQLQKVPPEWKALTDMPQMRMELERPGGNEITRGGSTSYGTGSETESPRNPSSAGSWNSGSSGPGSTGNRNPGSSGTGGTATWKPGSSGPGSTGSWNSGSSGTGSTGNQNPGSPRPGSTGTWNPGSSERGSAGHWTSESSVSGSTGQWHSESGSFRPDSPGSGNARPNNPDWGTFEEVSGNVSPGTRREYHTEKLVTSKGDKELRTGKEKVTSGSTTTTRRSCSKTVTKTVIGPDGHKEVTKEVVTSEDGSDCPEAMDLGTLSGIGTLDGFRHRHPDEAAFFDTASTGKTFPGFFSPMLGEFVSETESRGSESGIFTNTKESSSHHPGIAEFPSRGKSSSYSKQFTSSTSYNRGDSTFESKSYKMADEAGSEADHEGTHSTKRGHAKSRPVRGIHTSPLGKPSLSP
T1 sequence (P02675 45-491 limits assumed): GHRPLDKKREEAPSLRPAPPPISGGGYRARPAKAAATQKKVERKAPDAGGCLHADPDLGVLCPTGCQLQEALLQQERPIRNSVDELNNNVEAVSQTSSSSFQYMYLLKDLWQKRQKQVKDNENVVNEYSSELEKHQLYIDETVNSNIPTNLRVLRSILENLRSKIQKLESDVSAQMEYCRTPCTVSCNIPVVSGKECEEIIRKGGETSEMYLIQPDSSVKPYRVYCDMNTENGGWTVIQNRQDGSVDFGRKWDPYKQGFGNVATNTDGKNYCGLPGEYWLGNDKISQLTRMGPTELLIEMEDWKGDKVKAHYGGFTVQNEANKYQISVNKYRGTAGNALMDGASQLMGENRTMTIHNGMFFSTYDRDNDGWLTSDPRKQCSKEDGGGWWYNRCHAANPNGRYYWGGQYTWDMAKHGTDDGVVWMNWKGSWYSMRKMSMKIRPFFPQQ
T1 sequence (P02679 27-437 isoform P02679-2 limits assumed): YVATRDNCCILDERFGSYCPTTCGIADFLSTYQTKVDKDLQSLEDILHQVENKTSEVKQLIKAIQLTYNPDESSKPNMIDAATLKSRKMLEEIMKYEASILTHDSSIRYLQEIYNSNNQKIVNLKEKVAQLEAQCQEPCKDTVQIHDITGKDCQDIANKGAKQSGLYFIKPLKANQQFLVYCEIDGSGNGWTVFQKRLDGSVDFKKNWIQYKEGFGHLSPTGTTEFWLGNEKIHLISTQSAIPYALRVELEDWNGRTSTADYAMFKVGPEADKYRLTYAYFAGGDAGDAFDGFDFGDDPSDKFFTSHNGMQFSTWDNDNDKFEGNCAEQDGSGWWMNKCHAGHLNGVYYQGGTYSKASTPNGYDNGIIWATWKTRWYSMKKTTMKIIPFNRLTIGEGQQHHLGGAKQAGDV

effect on gel structure when present in the gel-forming system: more porous structures
Substance: Albumin: protein known to produce more porous fibrin gel structures when present in the gel-forming system
